The target of the assay is recombinant IGF1 receptor fused to one fragment of beta-galactosidase, over expressed on cells (DISCOVERX PathHunter IGF1R Bioassay Kit, Catalog No. 93-0505Y1) (UniProt P08069). Briefly: cell-based or functional assay.

Chains of the proteins cited; added tags and fusions are not shown. Residues count along the entry.
UniProt P08069, 31-1367: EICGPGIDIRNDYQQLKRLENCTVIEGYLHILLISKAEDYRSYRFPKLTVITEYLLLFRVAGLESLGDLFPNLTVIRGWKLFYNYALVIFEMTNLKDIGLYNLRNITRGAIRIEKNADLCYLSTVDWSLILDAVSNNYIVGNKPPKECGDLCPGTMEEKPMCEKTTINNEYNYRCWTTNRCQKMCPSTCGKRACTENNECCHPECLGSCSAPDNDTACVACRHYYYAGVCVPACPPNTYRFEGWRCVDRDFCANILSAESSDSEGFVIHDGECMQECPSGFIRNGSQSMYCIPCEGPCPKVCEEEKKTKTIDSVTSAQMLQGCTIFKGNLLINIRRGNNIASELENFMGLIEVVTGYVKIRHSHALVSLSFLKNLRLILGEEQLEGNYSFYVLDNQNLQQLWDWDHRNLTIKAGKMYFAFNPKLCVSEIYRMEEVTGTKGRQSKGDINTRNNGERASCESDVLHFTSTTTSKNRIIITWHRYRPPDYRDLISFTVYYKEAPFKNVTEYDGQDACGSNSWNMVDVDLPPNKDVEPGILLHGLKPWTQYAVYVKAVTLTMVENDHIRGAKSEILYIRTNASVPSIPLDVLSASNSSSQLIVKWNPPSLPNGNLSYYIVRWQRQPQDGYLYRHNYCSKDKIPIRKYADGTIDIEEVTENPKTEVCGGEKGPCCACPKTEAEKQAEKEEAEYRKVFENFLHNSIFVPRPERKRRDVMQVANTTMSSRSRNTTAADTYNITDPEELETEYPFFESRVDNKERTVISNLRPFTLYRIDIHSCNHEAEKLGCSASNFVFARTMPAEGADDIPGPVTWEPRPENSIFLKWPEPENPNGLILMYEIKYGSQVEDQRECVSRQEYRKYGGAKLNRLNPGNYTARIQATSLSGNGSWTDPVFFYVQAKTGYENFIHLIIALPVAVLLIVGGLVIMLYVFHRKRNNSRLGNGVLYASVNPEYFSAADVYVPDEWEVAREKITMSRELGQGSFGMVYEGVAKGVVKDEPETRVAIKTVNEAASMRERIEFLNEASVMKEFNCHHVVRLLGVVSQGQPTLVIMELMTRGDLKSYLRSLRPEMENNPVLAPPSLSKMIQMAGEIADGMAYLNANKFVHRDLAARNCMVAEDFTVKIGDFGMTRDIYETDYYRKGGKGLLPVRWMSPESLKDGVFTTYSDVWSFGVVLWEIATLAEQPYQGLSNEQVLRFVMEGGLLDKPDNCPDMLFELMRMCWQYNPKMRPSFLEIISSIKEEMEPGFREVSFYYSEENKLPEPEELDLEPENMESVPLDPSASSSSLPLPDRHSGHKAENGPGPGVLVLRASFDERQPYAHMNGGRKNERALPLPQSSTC

In the case of Agonist (IGF1) of Table 8 (ligand), the Average EC50 (PathHunter IGF1R bioassay) was 830 pM; the Average fold reduction, as compare to Increlex is 1.8 fold; the EC50, CBA#1 (PathHunter IGF1R bioassay) turned out to be 670 pM; the EC50, CBA#2 (PathHunter IGF1R bioassay) was 700 pM. The EC50, CBA#3 (PathHunter IGF1R bioassay) was 960 pM and the EC50, CBA#5 (PathHunter IGF1R bioassay) came to 1010 pM.

The record behind these values is patent US20210008172A1.
